# From PubChem
# Sampled rows, rich in hits. Any-hit rate of the full collection: about 1.7%.
# CAL PDZ FP-1 = CAL PDZ peptide-binding inhibitors, primary screen, biochemical, fluorescence polarization, Cer-tagged CAL PDZ, HTS. purified CAL PDZ, TMR-peptide fluorescence polarization, 1 h. inhibition, % at 20 µM. 330,000 tested, 0.02% active. AID 504414, 2011;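 active = highest replicate inhibition of at least 40%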;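 note: plate controls were DMSO neutral control wells for no effect and unlabeled competitor peptide control wells for full effect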
#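 material = purified tagged CAL PDZ domain construct (CerCALP) | compound dosing = 20 µM, one dose | times = 1 h at RT | measured by = fluorescence polarization from S- and P-plane intensities, G-factor corrected | read-out = inhibition from polarization loss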
# CAL PDZ FP-2 = untagged CAL PDZ binding inhibitors, primary screen, biochemical, fluorescence polarization, HTS; Golgi-associated PDZ and coiled-coil motif-containing protein (Homo sapiens), Q9HD26; purified CAL PDZ, TMR-peptide fluorescence polarization, 1 h; inhibition, % at 24.9 µM; 300,000 tested, 0.92% active; AID 602252, 2012;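 active = mean inhibition of at least 30% with at least half of replicates also reaching 30%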;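 note: 0% = DMSO neutral control and 100% = excess unlabeled competitor peptide PRC23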
# dFosB act-1 = activators of delta FosB homodimer, primary screen, biochemical, fluorescence polarization, TAMRA-CDK5 oligo, single point. activation, % at 25 µM. purified delta FosB; percent of positive-control signal above neutral wells. 340,000 tested, 0.99% active;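 active = mean activation above about 17%, with every replicate also reaching it, limit read from the data, passing the limit was not always enough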
# UUG fidelity = modulators of start codon recognition fidelity in yeast. S. cerevisiae UUG-firefly luciferase reporter, luminescence/redox ratio. activity score, % at 18.7 µM. 0.13% of 350,000 active. AID 602363;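 active = replicate mean at a twofold rise or more, about +100% in these data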;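 also: firefly luciferase made from a UUG start codon reports start codon fidelity; reporter light over untreated wells divided by growth signal over untreated wells; some hits fall short of that in this replicate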
# CDK5 p35 inh = inhibitors of human CDK5/p35 kinase, primary screen, biochemical, single concentration; inhibition, % at 10 µM; 330,000 tested, 0.01% active; AID 488839, 2010; Recombinant CDK5/p35, ADP-Glo luminescence, 60 min;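 active = highest replicate inhibition of at least 50% and at least 75% of replicates reaching 50%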;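 note: plate controls were DMSO neutral control for no effect and GW8510 at 10 µM for full effect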
# Dyrk1A ADPGlo = rat Dyrk1A kinase inhibitors, primary screen, biochemical, single point, plate reader; AID 504441, 2011; ADP-Glo luminescence, NFATc1 peptide; 310,000 tested, 0.43% active; inhibition, % at 12.5 µM; in the data active = inhibition above about 50%;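 note: plate controls were vehicle with enzyme for no effect and no enzyme for full effect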
# dFosB act-2 = activators of mouse delta FosB DNA binding, confirmation, biochemical, fluorescence polarization, TAMRA-CDK5 oligo, cherry-picked samples | shares compounds with dFosB act-1 | purified delta FosB; normalised: neutral wells 0, positive control 100 | activation, % at 24.9 µM | 2,400 tested, under 10 active | AID 588690, 2011;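 active = highest replicate activation at or above 34% and every replicate reaching that threshold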;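 note: higher polarization means more probe DNA bound by delta FosB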
# Numbers without * were called inactive; / = no result given.
# The line under a structure holds: CAL PDZ FP-1 | CAL PDZ FP-2 | dFosB act-1 | UUG fidelity | CDK5 p35 inh | Dyrk1A ADPGlo | dFosB act-2
(1) COC(=O)c1ccc(/C=C2\Oc3ccccc3NC2=O)cc1
  -1 | -3 | 33* | -19 | -1 | 1 | -7
(2) COC(=O)c1ccc2c(c1)C(=O)/C(=C/c1ccc(C)cc1)O2
  0 | -2 | 0 | 0 | 0 | -6 | /
(3) O=C1Nc2ccccc2O/C1=C\c1c(F)cccc1Cl
  -2 | -3 | 25* | -23 | 0 | 0 | 1
(4) O=C(Nc1ccccc1F)N1C[C@@H]2[C@H](c3ccccc31)[C@H](CO)N2C(=O)C1CCCC1
  / | / | / | -3 | / | / | /
(5) Cc1ccc(NC(=O)C2CC(=O)Nc3nc4ccccc4n32)c(C)c1 (configuration not stated)
  -3 | 4 | 47* | -15 | -2 | -11 | 6
(6) C[C@@H]1CCCCO[C@@H](CN(C)CC2CCCCC2)[C@H](C)CN([C@@H](C)CO)C(=O)c2cc(NC(=O)Nc3ccc4c(c3)OCO4)ccc2O1
  / | / | / | -2 | / | / | /
(7) COc1cccc(-n2c(SCC(=O)N3CCc4ccccc43)nnc2-c2c[nH]c3ccccc23)c1
  0 | -1 | -6 | 16 | 0 | -7 | /
(8) CCOc1ccc(-n2c(SCC(=O)N3CCc4ccccc43)nnc2-c2c[nH]c3ccccc23)cc1
  2 | 1 | 27* | -17 | 4 | 3 | 4
(9) Cc1cccc(-n2c(Cc3cc(=O)[nH]c(=O)[nH]3)nnc2SCC(=O)N2CCc3ccccc32)c1
  -1 | -4 | 38* | -13 | 1 | 1 | -2
(10) CO[C@@H]1CN(C)C(=O)c2cc(NC(C)=O)ccc2OC[C@H](C)N(Cc2cncnc2)C[C@@H]1C
  / | / | / | -12 | / | / | /

# In the list so far, 2 have fluorine:
# The line under a structure holds: CAL PDZ FP-1 | CAL PDZ FP-2 | dFosB act-1 | UUG fidelity | CDK5 p35 inh | Dyrk1A ADPGlo | dFosB act-2
(3) O=C1Nc2ccccc2O/C1=C\c1c(F)cccc1Cl
  -2 | -3 | 25* | -23 | 0 | 0 | 1
(4) O=C(Nc1ccccc1F)N1C[C@@H]2[C@H](c3ccccc31)[C@H](CO)N2C(=O)C1CCCC1
  / | / | / | -3 | / | / | /

# Later entries:
# The line under a structure holds: CAL PDZ FP-1 | CAL PDZ FP-2 | dFosB act-1 | UUG fidelity | CDK5 p35 inh | Dyrk1A ADPGlo | dFosB act-2
(11) C/C(=N\NC(=S)NC1CCCCC1)c1ccc(C#N)cc1
  0 | / | 36* | -14 | 0 | 1 | 6
(12) N#Cc1ccc(C(=O)NC(=S)NC2CCCCC2)cc1
  0 | -4 | -12 | -21 | -1 | / | /
(13) O=C(COc1ccc2ccccc2c1Br)Nc1ncn[nH]1
  0 | 2 | 25* | / | 0 | 3 | 6
(14) O=C(Nc1ccc(Cl)cc1)N[C@H]1CC[C@@H](CCn2cc(-c3ccccc3F)nn2)O[C@H]1CO
  / | / | / | -3 | / | / | /
(15) O=C(COC(=O)/C=C/c1cccc(Cl)c1Cl)Nc1ccc2[nH]c(=O)[nH]c2c1
  -4 | 0 | 35* | -20 | 1 | / | 3
(16) COc1cccc(/C=C/C(=O)OCC(=O)Nc2ccc3[nH]c(=O)[nH]c3c2)c1OC
  0 | 9 | 8 | -7 | -1 | / | /
(17) O=C(COC(=O)/C=C/c1cccc(Cl)c1)Nc1ccc2[nH]c(=O)[nH]c2c1
  0 | -2 | 27* | / | 0 | 4 | 0
(18) O=C(COC(=O)/C=C/c1cccc(F)c1)Nc1ccc2[nH]c(=O)[nH]c2c1
  0 | 2 | 9 | 2 | 4 | -5 | /
(19) CO[C@H]1CN(C)C(=O)c2cc(NC(=O)Nc3cc(F)ccc3F)ccc2OC[C@@H](C)N(C(=O)c2cnccn2)C[C@@H]1C
  / | / | / | -1 | / | / | /
(20) Cc1cc2c(cc1C)C(c1cc(Br)ccc1F)CC(=O)N2 (configuration not stated)
  -3 | -2 | 22* | / | -2 | 0 | 2

# Single records, as listed above. Order of values: CAL PDZ FP-1 | CAL PDZ FP-2 | dFosB act-1 | UUG fidelity | CDK5 p35 inh | Dyrk1A ADPGlo | dFosB act-2
# O=C(COC(=O)/C=C/c1cccc(F)c1)Nc1ccc2[nH]c(=O)[nH]c2c1 is listed as 0 | 2 | 9 | 2 | 4 | -5 | /
# O=C(COC(=O)/C=C/c1cccc(Cl)c1)Nc1ccc2[nH]c(=O)[nH]c2c1 is listed as 0 | -2 | 27* | / | 0 | 4 | 0

# Carrying on.
# The line under a structure holds: CAL PDZ FP-1 | CAL PDZ FP-2 | dFosB act-1 | UUG fidelity | CDK5 p35 inh | Dyrk1A ADPGlo | dFosB act-2
(21) COc1cccc(-c2cn(CC[C@H]3CC[C@@H](NC(C)=O)[C@@H](CO)O3)nn2)c1
  / | / | / | 0 | / | / | /
(22) COc1ccccc1NC(=O)c1sc2ncn(CC(=O)Nc3ccccc3)c(=O)c2c1C
  1 | 1 | 49* | -13 | 0 | 13 | 1
(23) Cc1ccccc1CN(C)C[C@H]1OCc2cn(nn2)CCCC(=O)N([C@@H](C)CO)C[C@@H]1C
  / | / | / | -4 | / | / | /
(24) O=C(Cn1cnc2c(nnn2Cc2ccc(F)cc2)c1=O)NCc1ccccc1
  -4 | 0 | 3 | / | -1 | -6 | /
(25) Cc1ccc(-n2nc3c(=O)n(CC(=O)NCc4ccccn4)nc(C)c3c2C)cc1
  0 | -5 | -15 | -17 | 0 | -2 | /
(26) Cc1ccc(-n2nnc3c(=O)n(CC(=O)NCc4ccccc4)cnc32)cc1
  -1 | / | 27* | -27 | 0 | 2 | 4
(27) CCOc1ccc(CNC(=O)Cn2nc(C)c3c(C)n(-c4ccc(C)cc4)nc3c2=O)cc1
  0 | -4 | 59* | -13 | 0 | 5 | 6
(28) O=C(Cn1cnc2c(nnn2-c2ccccc2)c1=O)NCc1ccc(F)cc1
  -1 | / | 19* | -12 | 0 | -4 | 4
(29) Cc1cccc(COc2ccc(/C=N/NC(=O)c3nnn(-c4nonc4N)c3COc3ccc(F)cc3)cc2)c1
  -1 | -4 | 27* | -9 | 2 | 4 | -2
(30) Cc1c(C(=O)N/N=C/c2cccc(O)c2)nnn1-c1nonc1N
  -2 | -4 | -1 | -8 | 0 | -3 | /
(31) Nc1nonc1-n1nnc(C(=O)N/N=C/c2ccccc2Cl)c1COc1ccc(F)cc1
  2 | -6 | 27* | / | 1 | 7 | 2
(32) Nc1nonc1-n1nnc(C(=O)N/N=C/c2ccc(OCc3ccccc3)cc2)c1COc1ccc(F)cc1
  -1 | 5 | 0 | -28 | 1 | -3 | /
(33) Cc1ccccc1COc1cccc(/C=N/NC(=O)c2nnn(-c3nonc3N)c2C)c1
  1 | -6 | 24* | -20 | 2 | -4 | 0
(34) O=C(CN1CCOCC1)NCC[C@@H]1CC[C@H](NC(=O)Nc2ccc(F)cc2)[C@@H](CO)O1
  / | / | / | -3 | / | / | /
(35) CCC(=O)Nc1ccc2c(c1)C(=O)N(C)C[C@H](OC)[C@@H](C)CN(C(=O)CC1CC1)[C@H](C)CO2
  / | / | / | -4 | / | / | /
(36) O=C(NCc1ccc2c(c1)OCO2)C1CCN(c2nccc(C(F)(F)F)n2)CC1
  0 | -6 | 18* | -7 | 0 | / | -14
(37) CCOc1ccc(S(=O)(=O)N(C)c2ccc(OCC(=O)N3c4ccc(C)cc4C4CN(C)CCC43)cc2)cc1 (configuration not stated)
  -3 | -1 | 34* | 3 | -2 | -2 | 3
(38) Cc1ccc2c(c1)C1CN(C)CCC1N2C(=O)COc1ccc(N(C)S(=O)(=O)c2cccs2)cc1 (configuration not stated)
  -3 | -1 | -15 | / | 1 | -6 | /
(39) CO[C@@H]1CN(C)C(=O)c2cc(NC(=O)C3CC3)ccc2OC[C@H](C)N(CC2CCCC2)C[C@@H]1C
  / | / | / | -11 | / | / | /
